# Source: PMC9841523, “Discovery of RMC-5552, a Selective Bi-Steric Inhibitor of mTORC1, for the Treatment of mTORC1-Activated Tumors” (Journal of Medicinal Chemistry, 2022)
# Target: mTORC1 (UniProt P42345)
# Assay: cryo-EM structure; mTORC1-RMC-5552-FKBP12 complex; about 800 000 particles, map of 3.1 Å with 2-fold symmetry; final monomeric map of 2.9 Å (PDB 8ERA)
substance,measurement,value
mTORC1 (from UniProt P42345 1-2549; Q8N122 1-1335; Q9BVC4 1-326) (complex),stoichiometry N,2
